Test results from ChEMBL document CHEMBL6087464, “Design, Synthesis, and Biological Evaluation of 3,4-Dihydroisoquinolin-1(2H)-one Derivatives as Protein Arginine Methyltransferase 5 Inhibitors for the Treatment of Non-Hodgkin's Lymphoma” (J Med Chem, 2025).
pIC50: −log10 of the molar value.

Chains of the proteins cited; added tags and fusions are not shown.
UniProt Q99873, whole entry: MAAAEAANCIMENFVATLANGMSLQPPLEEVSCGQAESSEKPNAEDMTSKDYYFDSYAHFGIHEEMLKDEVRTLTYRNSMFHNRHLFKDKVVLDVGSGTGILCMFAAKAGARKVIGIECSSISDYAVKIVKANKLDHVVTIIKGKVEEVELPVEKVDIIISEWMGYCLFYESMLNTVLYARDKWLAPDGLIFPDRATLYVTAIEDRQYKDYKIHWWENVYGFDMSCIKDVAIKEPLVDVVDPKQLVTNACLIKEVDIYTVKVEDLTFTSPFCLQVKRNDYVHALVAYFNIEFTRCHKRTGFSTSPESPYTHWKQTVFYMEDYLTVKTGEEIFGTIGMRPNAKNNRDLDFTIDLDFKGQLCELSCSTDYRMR

Biological target: Protein arginine N-methyltransferase 1 (Homo sapiens, UniProt Q99873)
Assay: Inhibition of PRMT1 (unknown origin)

SMILES: C[S+](CC[C@H](N)C(=O)[O-])C[C@H]1O[C@@H](n2cnc3c(N)ncnc32)[C@H](O)[C@@H]1O (stereo partly specified) [ADEMETIONINE]
- pIC50: 6.33
